The values that follow come from ChEMBL document CHEMBL1649375, “Design, synthesis and pharmacobiological evaluation of novel acrylic acid derivatives acting as lipoxygenase and cyclooxygenase-1 inhibitors with antioxidant and anti-inflammatory activities” (Eur J Med Chem, 2011).

What all share (format): functional
Set-up in all cases: scale not given: the % may be the effect or the level left

Test [1] is described as follows: DPPH radical scavenging activity assessed as reducing ability at 0.1 mM after 20 mins. In outline:
(§1)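 DPPH in absolute ethanol mixed with equal volume of compound in DMSO (10 mM stock; final 0.05, 0.1, 0.2 mM); absorbance at 517 nm after 20 and 60 min at room temperature; % reducing ability. At least triplicate.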
(The DPPH test is a chemical assay of radical scavenging.)

Test [2] is described as follows: DPPH radical scavenging activity assessed as reducing ability at 0.1 mM after 60 mins. In outline:
as §1

Test [3] in a line: DPPH radical scavenging activity assessed as reducing ability at 0.05 mM after 20 mins. The gist of the method:
as §1

For `CC(Cc1ccc(O)c(O)c1)C(C)Cc1ccc(O)c(O)c1` (stereo not drawn) [NORDIHYDROGUAIARETIC ACID], the values for the Activity in test [1], in test [2] and in test [3] were 81%, 82.6% and 84.8%, respectively.
